Source: PubChem BioAssay AID2796 (The Scripps Research Institute Molecular Screening Center, 2010)
This is a selection; strong and weak results do not stand in their true shares. The source made the active and inactive calls. Rule as the data show it: active = activation above about 47%; inactive = the rest.

Chains of the proteins cited; added tags and fusions are not shown.
UniProt P35869, whole entry: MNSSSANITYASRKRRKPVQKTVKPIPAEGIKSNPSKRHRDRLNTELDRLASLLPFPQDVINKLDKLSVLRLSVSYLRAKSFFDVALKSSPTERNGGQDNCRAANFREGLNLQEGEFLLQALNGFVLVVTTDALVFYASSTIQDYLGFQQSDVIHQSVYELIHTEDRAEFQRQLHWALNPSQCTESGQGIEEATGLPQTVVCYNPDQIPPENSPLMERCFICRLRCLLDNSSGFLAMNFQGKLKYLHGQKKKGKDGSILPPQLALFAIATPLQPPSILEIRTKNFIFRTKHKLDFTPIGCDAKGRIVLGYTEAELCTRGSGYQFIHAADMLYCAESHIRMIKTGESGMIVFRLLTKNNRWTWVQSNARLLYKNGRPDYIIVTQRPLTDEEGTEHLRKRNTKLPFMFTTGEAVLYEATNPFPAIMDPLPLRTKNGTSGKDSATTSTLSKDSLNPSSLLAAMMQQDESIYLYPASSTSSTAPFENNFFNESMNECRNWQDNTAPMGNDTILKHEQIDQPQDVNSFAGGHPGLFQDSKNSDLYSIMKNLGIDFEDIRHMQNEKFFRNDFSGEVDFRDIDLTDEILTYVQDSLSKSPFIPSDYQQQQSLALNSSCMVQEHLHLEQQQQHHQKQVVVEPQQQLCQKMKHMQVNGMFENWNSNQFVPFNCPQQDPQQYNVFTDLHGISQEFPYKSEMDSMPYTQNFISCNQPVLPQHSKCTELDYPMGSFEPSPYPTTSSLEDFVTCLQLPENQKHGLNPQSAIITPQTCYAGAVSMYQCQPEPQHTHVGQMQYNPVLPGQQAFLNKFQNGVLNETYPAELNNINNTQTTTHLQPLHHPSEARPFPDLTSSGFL

biological target: Aryl hydrocarbon receptor (Homo sapiens) (UniProt P35869); test: AHR activators, primary screen, cell-based, luminescence, luciferase reporter, human (AID 2796); conditions: AHR-responsive luciferase reporter cells, at 5 µM, active compounds read high;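 also: 0% = vehicle wells and 100% = reference agonist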

Row | Compound | activation
1 | O=C(NCC1(N2CCCCC2)CCCCC1)c1cccc([N+](=O)[O-])c1 | inactive: -1.64%
2 | O=C(NCC1(N2CCCCC2)CCCCC1)c1ccc(OC(F)F)cc1 | inactive: 0.59%
3 | COc1cc(C(=O)NCC2(N3CCCCC3)CCCCC2)ccc1OC(F)F | inactive: 0.82%
4 | O=C(NCC1(N2CCOCC2)CCCCC1)c1cc(=O)[nH]c2ccccc12 | inactive: 6.01%
5 | CN1CCN(CCOC(=O)C(O)(c2ccccc2)c2ccccc2)CC1 | inactive: -0.59%
6 | COc1ccc(NC2CCN(C(=O)OC(C)(C)C)CC2)cc1 | inactive: 5.66%
7 | O=C(NCC1(N2CCCCC2)CCCCC1)c1cccc(C(F)(F)F)c1 | inactive: 4.1%
8 | O=C(NCC1(N2CCOCC2)CCCCC1)c1cc(F)c(F)cc1Cl | inactive: 1.97%
9 | COc1cc(OC)c(C(=O)NCC2(N(C)C)CCCCC2)cc1OC | inactive: -1.45%
10 | CC(C)c1ccc(NC2CCN(C(=O)OC(C)(C)C)CC2)cc1 | inactive: 0.08%
11 | CN(C)c1cccc(C(=O)NCC2(N3CCCCC3)CCCCC2)c1 | inactive: 3.25%
12 | COc1ccc(CN(CCCl)CCCl)cc1Cl | inactive: 0.97%
13 | O=C(NCC1(N2CCCCC2)CCCCC1)c1cncc(Br)c1 | inactive: 8.4%
14 | CN1CCC(Nc2cccc(F)c2)CC1 | inactive: 4.48%
15 | CSc1ccccc1C(=O)NCC1(N2CCCCC2)CCCCC1 | inactive: -3.24%
16 | COc1ccc(C(=O)NCC2(N3CCCCC3)CCCCC2)c(OC)c1OC | inactive: -1.11%
17 | CC(C)(C)OC(=O)N1CCC(N(C(=O)c2ccccc2)c2ccc(F)cc2)CC1 | inactive: 2.91%

Row | Compound | activation
18 | COc1ccc(C(=O)NCC2(N3CCCCC3)CCCCC2)cc1 | inactive: -1.5%
19 | O=C(NCC1(N2CCCCC2)CCCCC1)c1cccs1 | inactive: -0.58%
20 | O=C(NCC1(N2CCCCC2)CCCCC1)c1ccc(=O)[nH]c1 | inactive: -1.02%
21 | COc1ccc(Cl)cc1C(=O)NCC1(N2CCOCC2)CCCCC1 | inactive: 4.12%
22 | O=C(OC1CN2CCC1CC2)C1c2ccccc2Oc2ccccc21 (stereo not drawn) | inactive: 0.84%
23 | O=C(NCC1(N2CCCCC2)CCCCC1)c1ccc(Cl)s1 | inactive: 0.64%
24 | N#CC1(Nc2ccccc2)CCN(Cc2ccccc2)CC1 | inactive: -0.08%
25 | CCOC(=O)N1CCC(Nc2ccc(OC)cc2)CC1 | inactive: -3.17%
26 | Cc1cc(C)cc(N(C(=O)c2ccccc2)C2CCN(C(=O)OC(C)(C)C)CC2)c1 | inactive: 1.16%
27 | O=C(NCC1(N2CCCCC2)CCCCC1)c1ccc(Cl)nc1 | inactive: 2.13%
28 | O=C(NCC1(N2CCOCC2)CCCCC1)c1cc2ccccc2o1 | inactive: 10.4%
29 | COc1ccc(NC2CCN(CCc3ccccc3)CC2)c(OC)c1 | inactive: 0.26%
30 | O=C(NCC1(N2CCCCC2)CCCCC1)c1ccc(F)cc1 | inactive: -0.36%
31 | CCOc1ccc(C)cc1CN(CCCl)CCCl | inactive: 1.35%
32 | Cc1ccc(OCC(C)C)c(CN(CCCl)CCCl)c1 | inactive: 0.84%
33 | CCOC(=O)N1CCC(Nc2cccc(C)c2)CC1 | inactive: -3.4%
